Measured values from US8455520B2, “Soluble epoxide hydrolase inhibitors, compositions containing such compounds and methods of treatment” (Merck Sharp & Dohme Corp., priority 2007, dated 2013).

Chains of the proteins cited; added tags and fusions are not shown.
UniProt P34913, whole entry: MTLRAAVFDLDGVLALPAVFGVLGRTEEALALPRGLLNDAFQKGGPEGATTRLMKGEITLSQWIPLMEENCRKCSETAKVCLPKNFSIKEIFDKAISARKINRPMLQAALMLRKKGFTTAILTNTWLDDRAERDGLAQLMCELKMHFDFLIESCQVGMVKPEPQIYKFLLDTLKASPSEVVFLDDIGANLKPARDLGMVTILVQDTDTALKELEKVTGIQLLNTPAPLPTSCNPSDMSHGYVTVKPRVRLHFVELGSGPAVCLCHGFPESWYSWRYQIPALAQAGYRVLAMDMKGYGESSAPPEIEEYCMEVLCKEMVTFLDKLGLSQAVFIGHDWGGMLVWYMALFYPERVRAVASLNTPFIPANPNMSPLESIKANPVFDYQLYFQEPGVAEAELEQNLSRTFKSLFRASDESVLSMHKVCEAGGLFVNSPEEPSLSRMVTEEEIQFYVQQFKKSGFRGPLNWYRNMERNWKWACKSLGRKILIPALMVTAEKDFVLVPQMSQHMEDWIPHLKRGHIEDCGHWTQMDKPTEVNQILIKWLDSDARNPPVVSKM

Molecular target: human sEH enzyme (Homo sapiens, UniProt P34913)
Experiment: sEH human enzyme assay (fluorescence based enzyme in vitro assay)
Conditions: read-out: IC50 [nM] for human sEH enzyme inhibition; recombinant human sEH about 1 nM, fluorescence substrate S7 10 uM, pH7.0, 25° C.
Excerpt: Preparation of Recombinant sEH Human Enzyme
The DNA for expressing sEH was designed based on a […] sEH cDNA. Necessary Modifications were introduced to optimize for its expression both in E. coli and insect cells. The designed DNA fragment encodes a protein sequence that is identical to full length human sEH, and the DNA was synthesized in vitro. The DNA was then subcloned into the pET100 vector that will generate a fusion protein with an N-terminal His-tag. The recombinant protein was expressed in E. coli. The sEH enzyme was affinity purified by a Ni^++ column. His-tag was removed by Enter Kinase (EK) digestion. The purified enzyme aliquots were frozen and held at −80° C. for later use.
Fluorescence Based Enzyme In Vitro Assay
For each assay (100 ul), an aliquot of enzymes (about 1 nM final concentration) was incubated with a fluorescence substrate, S7 (10 uM final concentration), in sEH assay buffer (25 mM HEPES, pH7.0, 0.1 mg/ml BSA) in a 96-well plate. The kinetic reaction reading (Ex330/Em465) was conducted using a plate reader, Spectra max (Molecular Devices) at 25° C.

Structure (SMILES) | IC50
O=C(Nc1ccc(C(F)(F)F)cc1)N1CCCC(Cc2ccccc2)(C(=O)NCc2ncco2)C1 (centres unmarked) | < 1 nM
O=C(Nc1ccc(C(F)(F)F)cc1)N1CCCC(COCc2cc(C(F)(F)F)cc(C(F)(F)F)c2)(c2ccccc2)C1 (centres unmarked) | 28 nM
